Earlier results in US10813929B2, “Treating cancer with ATR inhibitors” (VERTEX PHARMACEUTICALS INCORPORATED, priority 2011, dated 2020).

System: pancreatic cancer
Conditions: combined with gemcitabine, cited from earlier work

For cetuximab, the overall survival (versus 5.91 months) is listed as 6.24 months and the clinical benefit is listed as “no clinical benefit”.
